From paper PMC10892818, “An Antiherpesviral Host-Directed Strategy Based on CDK7 Covalently Binding Drugs: Target-Selective, Picomolar-Dose, Cross-Virus Reactivity” (Pharmaceutics, 2024)

Assays:
[1] = system: VZV Oka-GFP; settings: 96 well format
[2] = system: rKSHV.219-GFP/RFP; assay: KSHV-GFP/RFP reporter assay in iSLK.219 cells

Nc1nc(O)c2ncn(COC(CO)CO)c2n1 [GCV, ganciclovir]
SI (VZV-GFP system) [1]: > 34 | SI (KSHV-GFP/RFP system) ([2]; 0.05 μg/mL dox): > 460 | SI (KSHV-GFP/RFP system) ([2]; 0.5 μg/mL dox): > 460
